Source: patent US12285524B2, “Sustained-release pharmaceutical compositions comprising an antipsychotic drug and uses thereof” (priority 2018, dated 2025)
Where two headings read alike, the source gives them in different places.

Experiments:
[1] = oral administered; literature (Drug Deliv. 2015; 22(8):1059-1070); cited from earlier work
in vivo = conditions: female, Sprague-Dawley, rat, sc, 10 mg/kg
Protocol: The rats were housed in a holding room which operated on a 12-hr light/12-hr dark circadian cycle with free access to water and food.
Plasma samples were obtained by centrifugation, kept frozen at −80° C. and analyzed using a noncompartmental analysis model in PKSolver (Comput Methods Programs Biomed. 2010; 99(3):306-314).

In the case of `Cc1nc2n(c(=O)c1CCN1CCC(c3noc4cc(F)ccc34)CC1)CCCC2` [Risperidone, risperidone], the half-life [1] is given as 5.9 h and the half-life (in vivo) is given as 1.09 h.
